Assay results from patent US20070202166A1, “Method for increasing the rate and consistency of bioavailability of supplemental dietary ingredients” (priority 2006, published 2007).

Test: Solubility test: powder added to stirred water until saturated, gravity filtered, dry residue on filter paper weighed
Type: physicochemical
Details: for Max Amount Dissolved: 100 mL water, 1 g increments until visually saturated; for Dry Powder On Filter: Whatman 41 filter paper, particle retention 20-25 μm

In the case of “glycine-L-arginine-alpha-ketoisocaproic acid calcium”, the “Max Amount Dissolved” value (Fine-milled powder) is reported as 18 g, the “Dry Powder On Filter” value (Fine-milled powder) is reported as 0.31 g and the “Max Amount Dissolved” value (Regular powder) is reported as 18 g. For the same substance, the “Dry Powder On Filter” value (Regular powder) was 0.42 g and the “Fold Change (unfiltered regular substance divided by unfiltered fine-milled substance)” value (regular versus fine-milled, potential theoretical improvement in bioavailability) was 1.4 fold.
